{
  "source": "patent US12570752B2",
  "about": "“Combination therapy with an anti BCMA antibody and a gamma secretase inhibitor” (priority 2019, dated 2026)",
  "details": "2.5 mg/kg as two doses of 1.25 mg/kg on day 1 & day 8 compared to Q3W dosing",
  "data": [
    {"substance": "belantamab mafodotin", "values": [
      {"measurement": "reduction in the maximum concentration", "result": "~25", "unit": "%"}
    ]}
  ]
}
